The assay in a line: HIF reporter activators, metal chelation test – cell-based, iron medium, luminescence, U2OS, dry powder, mechanism study for HIF activator project, dose response (AID 493228). As to conditions: U2OS HRE-luciferase reporter, at 38 µM (top of the series). The procedure, abridged:
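Assay system – U2OS 3×HRE-luciferase reporter cells · Amount – 6,000 cells per well · Buffer or medium – ferric nitrate added, 50 µM final · Compound – 8 concentrations, 3-fold spacing · Incubation – cells plated 24 h before dosing, compound exposure 24 h at 37 °C · Technique – Steady-Glo luminescence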

Only a part is listed here, and it is no random draw. Records with an inconclusive call do not appear. Activity calls are given as the source filed them.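 Rule for the calls: active = fitted dose curve passes 500% activation at or below the top valid tested dose; inconclusive = no clear call, values can overlap the other calls; inactive = the rest, opposite-direction activity included.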

Regarding `O=c1[nH]c2ccccc2n1C1CCN(Cc2ccc(O)c3ncccc23)CC1`, the activation was inactive: 22.5%.

These data come from PubChem BioAssay AID493228 (Broad Institute, 2011).
